Source: patent US6632806B1, “Neurologically-active compounds” (The University of Sydney, priority 1997, dated 2003)

Sequences of proteins named here, by UniProt entry; tags and fusion partners are left off. Residues count along the entry.
UniProt P24046, 22-479: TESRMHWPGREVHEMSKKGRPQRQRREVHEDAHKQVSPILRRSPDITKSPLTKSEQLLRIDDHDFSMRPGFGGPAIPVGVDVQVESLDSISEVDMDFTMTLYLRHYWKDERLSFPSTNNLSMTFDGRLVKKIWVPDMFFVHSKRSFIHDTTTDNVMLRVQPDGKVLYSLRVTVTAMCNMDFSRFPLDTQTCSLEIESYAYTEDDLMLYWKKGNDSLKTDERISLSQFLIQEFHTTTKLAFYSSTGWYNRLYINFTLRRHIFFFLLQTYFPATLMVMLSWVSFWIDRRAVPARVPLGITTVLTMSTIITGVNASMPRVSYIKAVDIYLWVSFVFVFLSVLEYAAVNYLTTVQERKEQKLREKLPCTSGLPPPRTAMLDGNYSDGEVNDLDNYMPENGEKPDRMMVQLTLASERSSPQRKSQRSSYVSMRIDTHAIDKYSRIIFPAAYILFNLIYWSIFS

Molecular target: human r1 receptors (GABAC receptors) (Homo sapiens, UniProt P24046)
Test: Two-electrode voltage clamp recording of human r1 GABAC receptors expressed in Xenopus oocytes

CCCCP(=O)(O)CCCN [CGP36742, (3-aminopropyl)-n-butylphosphinic acid]
nH (Hill Coefficient): 3.0 ± 0.4 | Activation of the receptor by compound alone (100 μM, FIG. 1): do not activate the receptor | Effect on GABA response when co-applied with GABA (1 μM) (100 μM, FIG. 1): the GABA response is blocked or reduced | IC50 (IC50 (concentration that inhibits 50% of the response produced by 1 μM GABA), 1 μM GABA): 62 µM and 62.5 µM

Where “and” joins values, the source holds several entries; their conditions need not be identical. Equal entries are not always repeated.
